Experimental findings from patent US11104735B2, “Inhibition of cytokine-induced SH2 protein in NK cells” (The Walter and Eliza Hall Institute of Medical Research, priority 2015, dated 2021) are described below.

Amino acid sequences for entries named in this document (tags omitted). Residues count along the entry.
UniProt P23458, 875-1153 limits assumed: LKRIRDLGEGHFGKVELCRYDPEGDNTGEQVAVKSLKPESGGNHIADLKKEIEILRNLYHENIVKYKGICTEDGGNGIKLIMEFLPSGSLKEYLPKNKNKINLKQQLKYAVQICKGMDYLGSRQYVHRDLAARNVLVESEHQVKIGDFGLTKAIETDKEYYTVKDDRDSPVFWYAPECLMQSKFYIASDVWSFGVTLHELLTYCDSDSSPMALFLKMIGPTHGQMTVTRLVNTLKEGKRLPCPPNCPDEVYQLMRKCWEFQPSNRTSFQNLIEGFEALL

pIC50: −log10 of the molar value. “Also recorded” adds a separate entry of the source.

In assay [1] the test system is B16F10 melanoma cells. As to the kind of experiment: B16F10 experimental lung metastasis. The format is in vivo, mouse. The conditions noted are these: vs cIg. On the procedure: FIG. 4—Loss of Cish controls experimental lung tumour metastases. Cish^+/+ and Cish^−/− mice were injected i.v. with (a) 3×10^5 B16F10 melanoma cells or (b) 2×10^5 B16F10 melanoma and treated on days −1, 0 and 6 relative to tumour inoculation with either control Ig (cIg), anti-CD8 (αCD8; CD8 T cell depletion), anti-asialoGM1 (αasGM1; NK cell depletion) or anti-IFNγ (αIFNγ; neutralising), antibodies. Mice were sacrificed day 14 post-tumour injection. (c) NK cell-deficient (Ncr1^Mcl1Δ/Δ) mice were injected i.v. with 3×10^6 in vitro expanded Cish^+/+ or Cish^−/− NK cells or PBS, 8 h prior to injection with 1×10^5 B16F10 melanoma cells. Mice received a second injection of 1.5×10^6 in vitro expanded Cish^+/+ or Cish^−/− NK cells or PBS, 24 h post-tumour inoculation and were sacrificed at day 18 post-tumour injection. (a-c) The metastatic burden (mets) was quantified in the lungs by counting colonies on the lung surface. (d) Cish^+/+ Cish^−/− and Ncr1^Mcl1Δ/Δ (NK-null) mice were injected i.v. with 5×10^5 E0771 mCherry^+ breast cancer cells and lung metastasis analysed by IVIS (fluorescence emission; left panels) or H&E stained histological sections (right panels). (e) 1×10^5 E0771 cells were implanted into the mammary fat pad of Cish^+/+ and Cish^−/− mice and tumour size measured over time. (f) Orthotopic E0771 tumours generated as in (e) were surgically removed at 400-600 mm^3 and spontaneous lung metastases measured in the lungs 14 days later by IVIS and RT-PCR for mCherry mRNA expression. (g) Cish^+/+ and Cish^−/− mice were injected i.v. with B16F10 lung carcinoma (7.5×10^5 cells). On days 0, 3 and 6 relative to tumour inoculation, mice received either control Ig or combination anti-PD-1/anti-CTLA-4 antibodies. The metastatic burden was quantified after 13 days by counting colonies on the lung surface. Mean±S.E.M. and all data (n) are shown. […] Significant differences between groups were determined by a (a, c, g) Mann-Whitney U test (b) Kruskal Wallis with post Dunn's test or (e) Mantel-Cox test. […]

Assay [2] deals with RMA-S cells. As to the kind of experiment: RMA-S i.p. lymphoma model. The format is in vivo, mouse. Particulars: Cish−/− vs WT mice, 100,000 IU i.p. days 0-4. Here is the method:
(A) Groups of 5-6 B6.WT (Cish^+/+) or B6.Cish^−/− mice were injected i.v. with 2×10^5 B16F10 melanoma cells and treated with either control Ig (cIg) (250 μg i.p. on days 0, 3 and 6), anti-PD-1 (250 μg i.p. on days 0, 3 and 6), mouse IFN-αβ (25 μg i.p. on days 0, 1, 2 and 3) or recombinant IL-2 (10,000 IU i.p. on days 0, 1, 2 and 3). (B) Groups of 5-11 B6.WT (Cish^+/+) or B6.Cish^−/− mice were injected i.v. with 7.5×10^5 B16F10 melanoma cells and treated with either cIg (250 μg i.p. on days 0, 3 and 6), anti-PD1/anti-CTLA-4 combination (250 μg i.p. each on days 0, 3 and 6), or recombinant IL-2 (10,000 IU i.p. on days 0, 1, 2, 3 and 4). (C) Groups of 7-10 B6.WT (Cish^+/+) and B6.Cish^−/− mice were injected i.p. with 1×10^5 parental RMA-S cells and treated with either PBS or recombinant IL-2 (100,000 IU i.p. on days 0, 1, 2, 3 and 4). Mice were monitored for tumor development and were euthanized at the point of abdominal swelling and discomfort. Improved survival between groups was assessed by the Log-rank Mantel-Cox test. (D) Groups of 5-15 B6.WT (Cish^+/+) or B6.Cish^−/− mice were injected i.v. with 5×10^5 RM-1 prostate carcinoma cells and treated with either cIg, anti-CD96, anti-PD-1, anti-CTLA-4 or anti-PD1/anti-CTLA-4 combination (250 μg i.p. each on days 0 and 3). […]

Assay [3] deals with JAK1 (Homo sapiens, UniProt P23458). As to the kind of experiment: In vitro kinase inhibition assay, JAK1 kinase domain (JH1) with STAT5b substrate peptide. It is filed as biochemical. The conditions noted are these: JAK1 JH1, in vitro kinase reaction; unit inferred. Here is the method: Protein kinase assays, including high throughput kinase assays are known in the art as described in, e.g., in Babon et al. (2013) and Von Ahsen et al. (2005). In one exemplary embodiment 130 μM STAT5b peptide (SEQ ID NO:18 RRAKAADGYVKPQIKQVV) is incubated with 5 nM human JAK1 (see SEQ ID NO:11 for corresponding amino acid sequence) at 25° C. for 30-60 min in 20 mM Tris pH 8.0, 100 mM NaCl, 5 mM 2-mercaptoethanol, 0.2 mg ml^−1 bovine serum albumin, 2 mM MgCl2, 100 μM ATP and 1 μCi γ-[^32P]ATP. Recombinant trimeric complex CIS-SH2-Elongin B-Elongin C (see SEQ ID NOs:7, 14, and 15 for the corresponding amino acid sequences) is present at concentrations ranging from 0-30 μM. After incubation, the reaction is spotted onto P81 phosphocellulose paper and quenched in 5% H3PO4. The paper is then washed (4×200 ml, 15 min) with 5% H3PO4 and exposed to a phosphorimager plate. Quantitation is performed using phosphorimager software and IC50 curves are then calculated based on integrated pixel counts.
Kinase inhibition assays were performed essentially as described (Babon et al., 2012). […] Quantitation was performed using Fuji software and IC50 curves calculated using Graphpad Prism.

For IL-2: recombinant IL-2 cytokine, the B16F10 lung metastases entry is given as “ineffective” in assay [1] (Cish+/+ (WT) mice, high dose 7.5×10^5 cells i.v.); “appeared to further reduce metastasis” in assay [1] (Cish−/− mice, 2×10^5 cells i.v.); “more effective than cIg; also recorded: effective” in assay [1] (Cish−/− mice, high dose 7.5×10^5 cells i.v.). For the same substance, the “Survival in RMA-S lymphoma model” value in assay [2] is given as “improved effect”.
In the case of “full-length CIS: human full-length CIS protein expressed with elongins B and C as trimeric complex”, the pIC50 (in general, the IC50 on a negative log10 scale, so that one unit is a factor of ten) in assay [3] was roughly 4.49.
